Screens from PubChem.
Yeast UUG start-1 = alters start codon recognition fidelity in yeast. 350,000 tested, 0.13% active. activity score, % at 18.7 µM. S. cerevisiae UUG-firefly luciferase reporter, luminescence/redox ratio;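 active = replicate mean at a twofold rise or more, about +100% in these data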;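 also: firefly luciferase made from a UUG start codon reports start codon fidelity; reporter light over untreated wells divided by growth signal over untreated wells; some hits fall short of that in this replicate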
C2C12 statin = suppressors of simvastatin-induced myotoxicity in C2C12 myotubes. rescue of ATP level, % at 7.49 µM. 330,000 tested, 0.78% active. ATP luminescence, 48 h; scaled: DMSO 0, geranylgeraniol control 100;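 active = mean ATP rescue above about 67%, or every replicate alone reaching that limit, limit read from the data, passing the limit was not always enough; inconclusive = no clear call, values can overlap the other calls; inactive = mean under the limit and some replicate under it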;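 also: myotubes were challenged with 10 µM simvastatin during compound exposure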
miR122 inh = inhibitors of miR-122 in Huh7 cells; Huh7 miR-122 Renilla luciferase sensor, 48 h; neutral wells = 0, positive control = 100; activation (reporter increase), % at 12.5 µM; 340,000 tested, 0.3% active; AID 602342;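 active = mean replicate activation score at least 90 and every replicate individually at or above 90; inconclusive = only one of the two criteria met; inactive = neither criterion met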;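 also: higher luciferase means less miR-122 activity so hits act as miR-122 inhibitors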
Cneo AK release = Cryptococcus neoformans lysis via adenylate kinase release | C. neoformans lysis, adenylate kinase release luminescence, 4 h; normalised: neutral wells 0, clomiphene wells 100 | lysis activity, % at 15 µM | AID 651654 | 360,000 tested, 0.2% active;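 active = mean lysis activity across replicates of at least 80%, whatever share of replicates individually reach that level; inactive = mean lysis activity below 80%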
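Schedule: static 4 h at 37 °C with compound, 1 h detection; system: C. neoformans cells; benchmarks: Clomiphene as positive control; buffer or medium: fresh YPD medium; measure: luminescence rise reflecting yeast cell lysis; measured by: luminescent adenylate kinase detection reagent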
Yeast UUG start-2 = alters UUG start codon use in yeast; activation, % at 38 µM; 540 tested, under 10 active; shares compounds with Yeast UUG start-1; S. cerevisiae UUG-start firefly luciferase, luminescence, 4 h; 100% means double the DMSO signal;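 active = signal increase whose fitted curve reaches an absolute level of 40 at a concentration under 10 µM; inactive = activity opposite to the expected increase, or the rest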
Numbers without * were called inactive; i = inactive; ? = inconclusive; . = no result; [ ] = another dose, or the depositor's remark. In the library only some 1.2% were active in any assay of this set; here they are far more common.

SMILES	Yeast UUG start-1	C2C12 statin	miR122 inh	Cneo AK release	Yeast UUG start-2
O=C(/C=C\c1ccco1)Nc1nc(-c2ccccc2)cs1	.	6	-7	.	.
COc1ccccc1C(=O)N1C[C@H]2[C@@H](c3ccccc31)[C@@H](CO)N2C(=O)C1CCCCC1	-5	-21	-10[16.7 µM]	-3	.
O=C(CNC(=O)c1cc(=O)[nH]c2ccc(S(=O)(=O)N3CCOCC3)cc12)Nc1ccc(F)c(F)c1	108*	3	0	1	12
CN(C(=O)c1ccc(OC2CCN(CCc3ccccc3)CC2)cc1)C1CCOC1 (centres undefined)	10	-3	-12	-4	.
O=C(NC1CCOC1)c1ccc(OC2CCN(CCc3ccccc3)CC2)cc1 (centres undefined)	503*	1	-2	3	-2
COc1ccc2oc(C(=O)OCC(=O)c3ccc4c(c3)OCCO4)c(C)c2c1	668*	8	-2	-3	16
COc1ccc2oc(C(=O)N(C)Cc3ccc4c(c3)OCCO4)c(C)c2c1	22	20	.	-4	.
COc1ccc(-c2noc(Cc3cccs3)n2)cc1	active	93*	0	-4	-4
CCC(=O)N1[C@H](CO)[C@@H](c2ccc(C3=CCCC3)cc2)[C@@H]1CN(C)C(C)=O	9	9	7[16.7 µM]	-2	.
CCCCOc1ccc(C(=O)N2CCCCCC2)cc1	-3	-24	-5	-1	.
O=C(c1ccc(COc2ccc(Cl)cc2)cc1)N1CCCCC1	410*	2	-1	-2	3
COc1ccc(Cl)cc1NC(=O)CSc1nc2[nH]ncc2c(=O)[nH]1	109*	2	12	0	4
C[C@@H]1CN([C@H](C)CO)C(=O)c2cc(C#CC3CCCCC3)cnc2O[C@H]1CN(C)S(=O)(=O)c1ccc(F)cc1	-16	4	-5[16.7 µM]	0	.
C/C=C/c1cnc2c(c1)C(=O)N([C@@H](C)CO)C[C@@H](C)[C@@H](CN(C)S(=O)(=O)c1ccc(F)cc1)O2	76	-11	1[16.7 µM]	-2	.
C/C=C/c1cnc2c(c1)C(=O)N([C@H](C)CO)C[C@H](C)[C@H](CN(C)S(=O)(=O)c1ccc(F)cc1)O2	130*	23	1[16.7 µM]	-1	i
C[C@@H]1CN([C@@H](C)CO)C(=O)c2cc(C#CC3CCCCC3)cnc2O[C@H]1CN(C)S(=O)(=O)c1ccc(F)cc1	119*	?	-6[16.7 µM]	2	i
Cc1noc(C)c1NC(=O)Nc1ccc2c(c1)C(=O)N([C@@H](C)CO)C[C@@H](C)[C@@H](CN(C)C(=O)Nc1ccc(C(F)(F)F)cc1)O2	-2	-30	-17[16.7 µM]	0	.
C[C@@H]1CN([C@@H](C)CO)C(=O)c2cc(C#CCN(C)C)cnc2O[C@H]1CN(C)C(=O)Cc1ccccc1	.	-23	11[16.7 µM]	-2	.
C[C@@H]1CN([C@@H](C)CO)C(=O)c2cc(C#Cc3ccccc3F)cnc2O[C@@H]1CN(C)C(=O)Cc1cccnc1	153*	12	.	-8	i
C[C@@H]1CN([C@H](C)CO)C(=O)c2cc(C#Cc3ccccc3F)cnc2O[C@H]1CN(C)C(=O)Cc1cccnc1	-7	10	.	0	.
C[C@@H]1CN([C@@H](C)CO)C(=O)c2cc(C#CCN(C)C)cnc2O[C@@H]1CN(C)C(=O)Cc1ccccc1	176*	0	6[16.7 µM]	50	i
COc1ccc(CNC(=O)C[C@H]2C[C@H]3c4cc(NC(=O)CN(C)C)ccc4O[C@H]3[C@H](CO)O2)cc1	9	10	-3[16.7 µM]	2	.
CCN(C(=O)c1cc(Cl)ccc1OC)c1ccccc1	-5	0	12	3	.
CCN(C(=O)c1cc(Cl)ccc1OC)c1ccccc1C	128*	.	-2	1	4
C#CCOCCOCCOCCNc1nc(N2CCN(C(=O)[C@H](CCC(=O)O)n3cc(C(N)Cc4ccc(O)cc4)nn3)CC2)nc(N2CCN(C(=O)[C@H](CCC(=O)O)n3cc(C(N)[C@H](C)CC)nn3)CC2)n1 (some centres undefined)	112*	0	-2	2	10

Rewritten as a markdown table: 5 of the compounds above
| structure | Yeast UUG start-1 | C2C12 statin | miR122 inh | Cneo AK release | Yeast UUG start-2 |
| --- | --- | --- | --- | --- | --- |
| O=C(CNC(=O)c1cc(=O)[nH]c2ccc(S(=O)(=O)N3CCOCC3)cc12)Nc1ccc(F)c(F)c1 | 108* | 3 | 0 | 1 | 12 |
| CN(C(=O)c1ccc(OC2CCN(CCc3ccccc3)CC2)cc1)C1CCOC1 (centres undefined) | 10 | -3 | -12 | -4 | . |
| O=C(NC1CCOC1)c1ccc(OC2CCN(CCc3ccccc3)CC2)cc1 (centres undefined) | 503* | 1 | -2 | 3 | -2 |
| COc1ccc2oc(C(=O)OCC(=O)c3ccc4c(c3)OCCO4)c(C)c2c1 | 668* | 8 | -2 | -3 | 16 |
| COc1ccc2oc(C(=O)N(C)Cc3ccc4c(c3)OCCO4)c(C)c2c1 | 22 | 20 | . | -4 | . |

Other records follow:
SMILES	Yeast UUG start-1	C2C12 statin	miR122 inh	Cneo AK release	Yeast UUG start-2
C#CCOCCOCCOCCNc1nc(N2CCN(C(=O)[C@H](CCCN=C(N)N)n3cc(C(N)[C@H](C)CC)nn3)CC2)nc(N2CCN(C(=O)[C@H](CC(N)=O)n3cc(C(N)[C@@H](C)CC)nn3)CC2)n1 (some centres undefined)	121*	-7	-3	0	-3
C[C@@H]1CN([C@@H](C)CO)C(=O)Cc2cc(NC(=O)CCN3CCOCC3)ccc2O[C@@H]1CN(C)Cc1ccc(-c2ccccc2)cc1	.	-15	-4[16.7 µM]	.	.
Cc1occc1C(=O)Nc1ccccc1NC(=O)c1ccoc1C	198*	0	5	1	-2
O=C(C1CCCC1)N1C[C@H]2[C@@H](c3ccccc31)[C@H](CO)N2C(=O)Cc1ccccn1	-8	0	0[16.7 µM]	-4	.
O=C(C1CCC1)N1C[C@@H]2[C@H](c3ccccc31)[C@H](CO)N2C(=O)Cc1ccccn1	111*	7	-30[16.7 µM]	-4	i
O=C(C1CCC1)N1C[C@H]2[C@@H](c3ccccc31)[C@H](CO)N2C(=O)Cc1ccccn1	130*	7	-30[16.7 µM]	1	i
COc1ccccc1CN1[C@@H]2CN(C(=O)C3CCC3)c3ccccc3[C@@H]2[C@@H]1CO	128*	6	0[16.7 µM]	-2	i
C[C@@H]1CN([C@H](C)CO)S(=O)(=O)c2ccc(Br)cc2O[C@@H]1CN(C)C(=O)CN(C)C	6	-1	-4[16.7 µM]	1	.
C/C=C/c1ccc2c(c1)O[C@H](CN(C)C(=O)CC)[C@@H](C)CN([C@H](C)CO)S2(=O)=O	4	-8	-2[16.7 µM]	-1	.
C[C@@H]1CCCCO[C@H](CN(C)C(=O)C2CCCCC2)[C@H](C)CN([C@@H](C)CO)C(=O)c2cc(NC(=O)Nc3ccc4c(c3)OCO4)ccc2O1	-17	.	-3[16.7 µM]	2	.
O=C(C[C@H]1C[C@H]2c3cc(NC(=O)c4ccc5c(c4)OCO5)ccc3O[C@H]2[C@H](CO)O1)NCCN1CCCCC1	.	-2	4[16.7 µM]	4	.
C[C@H](CO)N1C[C@H](C)[C@@H](CN(C)Cc2cccnc2)Oc2ncc(C#CC3CCCCC3)cc2C1=O	141*	24	-15[16.7 µM]	-5	i
C[C@@H]1CN([C@@H](C)CO)C(=O)c2cc(C#CC3CCCC3)cnc2O[C@H]1CN(C)C(=O)Nc1ccccc1	157*	?	-12[16.7 µM]	2	i
CCC(=O)N1C[C@@H](C)[C@@H](OC)CN(C)C(=O)c2cc(NC(=O)Nc3ccc(Cl)cc3)ccc2OC[C@@H]1C	1	-10	11[16.7 µM]	-4	.
O=C(Cn1cc(C(=O)C2CC2)c2ccccc21)NCC1CCCO1 (centres undefined)	9	11	-1	-5	6
CCOC(=O)C1CCN(C(=O)C(=O)c2cn(CC(=O)N3CCCCCC3)c3ccccc23)CC1	6	6	-3	5	.
O=C(Cn1cc(C(=O)C2CC2)c2ccccc21)NCc1ccccc1	17	3	.	-1	.
